These are literature values, as cited in patent publication US9937165B2, “Pharmacological chaperones for treating obesity” (Amicus Therapeutics, Inc., priority 2005, dated 2018).

Sequences of proteins named here, by UniProt entry; tags and fusion partners are left off.
UniProt P32245, whole entry: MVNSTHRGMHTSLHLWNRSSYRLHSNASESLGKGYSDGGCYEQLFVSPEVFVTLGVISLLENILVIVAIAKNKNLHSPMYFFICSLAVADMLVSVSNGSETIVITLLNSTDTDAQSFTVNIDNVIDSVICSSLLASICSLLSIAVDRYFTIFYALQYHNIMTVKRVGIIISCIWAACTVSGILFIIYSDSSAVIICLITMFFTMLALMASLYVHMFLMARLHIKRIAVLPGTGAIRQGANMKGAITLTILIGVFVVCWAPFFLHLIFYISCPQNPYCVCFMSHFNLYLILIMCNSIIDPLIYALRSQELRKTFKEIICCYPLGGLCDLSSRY

The target in the data set is MC4R (Homo sapiens, UniProt P32245). The conditions noted are these: cited from earlier work.

As to `O=C(N[C@H](Cc1ccc(Cl)cc1)C(=O)N1CCC(Cn2cncn2)(C2CCCCC2)CC1)[C@H]1Cc2ccccc2CN1` [Compound 1, THIQ], the “MC4R Activity Emax” value is reported as 97%.
